US5059587A, “Physiologically active peptide composition for nasal administration” (Toyo Jozo Company, Ltd., priority 1987, dated 1991)

Legend:
[1] = tested on: Japanese White strain male rabbits; experiment: Nasal administration of h-PTH (1-34) in rabbits (arterial blood pressure), Example 18; type: in vivo, rabbit; conditions: by addition of a water-soluble organic acid as absorption promoter (Table 1)
Experimental: (a) Experiment for Nasal Administration of h-PTH (1-34) in Rabbits
Japanese White strain male rabbits (body weight: 3 kg, one group consisting of 5 rabbits) were fasted overnight and then a tube was previously cannulated into one of carotids under anesthetization for.measurement of arterial pressure. The arterial pressure was recorded
through a pressure transducer. The h-PTH (1-34) nasal administration preparation of preparation 9 prepared in Example 18 (10 U/2 mg/kg) was nasally administered to the rabbits under anesthetization. […] For comparison, injection preparation of h-PTH (1-34) (3 U/2 mg/kg) was intravenously administered and similarly blood pressure was measured.

[2] = tested on: Japanese White strain male rabbits; experiment: Nasal administration of insulin preparation in rabbits (plasma glucose), Example 14; type: in vivo, rabbit; conditions: nasal 5 U/2.1 mg/kg, 30 min-6 h, with D-glucuronic acid, compared with control preparation (FIG. 3)

Row | Substance | absorption through nasal mucosa [1] | absorption through the nasal mucosa (decrease of glucose concentration in plasma) [2]
1 | human parathyroid hormone 1-34 [h-PTH (1-34)] | efficiently absorbed | –
2 | porcine insulin sodium salt | – | more efficiently absorbed
